For orientation: IC50 means the concentration that inhibits the measured activity by half.

Protein sequences, listed by entry. Tags and fused reporters are not part of them.
UniProt P51681, whole entry: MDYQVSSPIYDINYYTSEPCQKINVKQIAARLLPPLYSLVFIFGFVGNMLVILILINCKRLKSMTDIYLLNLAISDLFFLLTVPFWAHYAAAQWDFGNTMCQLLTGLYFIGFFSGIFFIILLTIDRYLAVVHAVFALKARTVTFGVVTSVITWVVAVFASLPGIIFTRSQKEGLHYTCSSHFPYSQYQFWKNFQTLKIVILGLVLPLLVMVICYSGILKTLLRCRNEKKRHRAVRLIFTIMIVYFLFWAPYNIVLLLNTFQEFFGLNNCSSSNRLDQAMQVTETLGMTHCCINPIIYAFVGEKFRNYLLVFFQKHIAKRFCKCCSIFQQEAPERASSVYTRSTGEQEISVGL

Consider one compound from ChEMBL document CHEMBL1177672, “Discovery of orally available spirodiketopiperazine-based CCR5 antagonists” (Bioorg Med Chem, 2010).

For this experiment, the target named is C-C chemokine receptor type 5 (Homo sapiens, UniProt P51681). In words: Antagonist activity at human CCR5 receptor expressed in CHO cells assessed as inhibition of MIP-1-alpha-stmulated calcium mobilization. In kind it is functional, cell-based. Background: Calcium flux is commonly read through the fluorescence of an indicator in the cells.

Regarding `CCCCN1C(=O)[C@H](CC2CCCCC2)NC(=O)C12CCN(Cc1ccc(Oc3ccc(C(=O)O)cc3)cc1)CC2.Cl`, the IC50 was determined as 13 nM.
